Where a name gives a salt, the structure may show the parent alone.
Key:
[1] = test system: C57BL/6J male mice; assay: Forced swimming test; conditions: for 1-h inhibition rate: i.p., immobility time 1 hr after administration
Description: Test animals: C57BL/6J male mice aged 10-12 weeks were purchased from Speifu (Suzhou) Biotechnology Co., Ltd. The animals arrived at the test center before the test and acclimated in the feeding room for more than 7 days. 5 animals per cage was bred at a temperature of 23-24°C, under a 12-hr light/12-hr dark cycle. Before the behavioral test, the animals were taken to the behavioral test chamber 1 hour in advance, to acclimate to the environment.
Forced swimming test is a standard behavioral test to evaluate the depressive behavior of rodents. […] It is generally accepted that this behavioral despair is similar to the depressive symptoms in humans. The objective of this test was to evaluate the antidepressant efficacy of the compound of the present invention in C57 mice.
In the FST test, the number of animals in each group (N) was 15, the administration mode was intraperitoneal injection (i.p.) or oral gavage (p.o.), the dosage of administration was 5, 10 or 20 mg/kg (depending on the experimental needs), and the volume of administration was 10 mL/kg. The vehicle was 0.9% physiological saline.
Test process: 1. The test was carried out in a quiet environment. The animals were weighed and acclimated in the test chamber for at least 30 min before the test.
2. The compound to be tested was dissolved in 0.9% physiological saline, and the corresponding volume of the compound was given by intraperitoneal injection (i.p.) or oral gavage (p.o.) according to the weight of mice and used as the test group. 0.9% physiological saline was used as the control group, and the dosage was the target dosage of administration. The administration process was double-blinded administration.
3. 1 hr after administration, the mice were placed in a transparent plexiglass water tank with a diameter of 15 cm and a height of 30 cm, in which water was injected to a height of about 15 cm, and the water temperature was 23-25°C. The total recording time was 6 min.
4. The immobility time of mice within later 4 min was analyzed, with which the degree of helplessness and despair of mice was reflected.
5. The immobility time of mice between the administration group and the control group was compared, and the antidepressant activity (1-h inhibition rate) of the compound to be tested was analyzed. The difference was analyzed by unpaired t-test to have statistical significance, P<0.05 means that there was a significant difference. * P<0.05, **P<0.01, ***P<0.001. [formula]

[2] = test system: C57BL/6J male mice; assay: Pre-pulse inhibition test; conditions: 45 mg/kg i.p.
Excerpt: Pre-pulse inhibition phenomenon is an important parameter to evaluate the sensorimotor gating function, and an index to evaluate schizophrenia-like behavior. This phenomenon means that a weak stimulus occurring before a strong stimulus will reduce the degree of animal response to the strong stimulus. In the present invention, the PPI test was used to evaluate whether the compound could induce psychotomimetic-like behavior in mice.
The animal information was the same as that in Test Example 2. The number of animals in each group (N) was 10, and the administration mode was intraperitoneal injection or oral administration (p.o.). The dosage of S-ketamine was 20 mg/kg, the dosage of other compounds was 45 mg/kg, and the administration volume was 10 mL/kg. The dosage for oral administration was 10 mg/kg.
Test process: The test was carried out in a quiet environment. The mice were weighed and acclimated in the test chamber for at least 30 min before the test. The PPI test was divided into four stages, including: acclimation stage, Block 1, Block 2, and Block 3. At the beginning of the test, the mice were given corresponding doses of solvent (control group) or test compound according to their body weight. Then the mice were placed in a startle response chamber and allowed to acclimate for 5 min without stimulation. Then in Block 1-3, the mice were given startle stimuli of varying decibel intensities. In Block 1 and Block 3, 10 trials were set, and each trial had no pre-pulse stimuli. The startle stimulus was set to be white noise of 120 dB. The time interval between trials varies randomly from 10 to 15 sec. Block 2 was set to have 56 trials. There were three types of stimuli: (1) a continuous startle stimulus of 120 dB was given in 8 trials; (2) a pre-pulse stimulus of 67, 70, 73, or 76 dB was given first and then a startle stimulus of 120 dB was given in 32 trials, and only pre-pulse stimulus (two trials for each of the four pre-pulse stimuli) was given in 8 trials; and (3) no stimulus was given in 8 trials, and the duration was 200 ms. The duration of pre-pulse stimulus was 20 ms, and the fixed interval was 100 ms. The duration of startle stimulus in all Block was 40 ms, and the background noise was set to 62dB. The instrument was wiped with 75% alcohol after each test, to avoid the influence of the information left by animals in the last round (such as the smell of animals' feces and urine) on the next test result. The difference was analyzed by unpaired t-test to have statistical significance, where P<0.05 means that there was a significant difference. ^# P<0.05, * P<0.05, ** P<0.01, *** P<0.001. […] Compound 2SS mesylate tends to cause loss of PPI at a pre-pulse level of 67 dB and 70 dB. Compound 2RR mesylate causes loss of PPI at a pre-pulse level of 76 dB. […]

Question: With Clc1cccc([C@@]23CCCC[C@H]2OCCN3)c1 [Crystal Form C of Compound 2 mesylate] as the molecule, how does the antidepressant effect ([1]; 10 mg/kg i.p.) read?
Answer: obvious antidepressant effect

Question: And the antidepressant effect ([1]; 20 mg/kg i.p.)?
Answer: obvious antidepressant effect

Question: And the 1-h inhibition rate ([1]; 5 mg/kg, 5 mg/kg)?
Answer: 11.2%

Question: What about the 1-h inhibition rate ([1]; 10 mg/kg) of the same molecule?
Answer: 23.3%

Question: What about the 1-h inhibition rate ([1]; 20 mg/kg) of the same molecule?
Answer: 24.9%

Question: What about the “PPI compared with S-ketamine and the isomers 2SS and 2RR” value ([2]; S-ketamine 20 mg/kg) of the same molecule?
Answer: superior to S-ketamine and significantly superior to its two comparative molecular isomers 2SS and 2RR

Question: And the PPI ([2]; native C57 mice)?
Answer: does not affect the PPI

Question: How did the antidepressant effect ([1]; 5 mg/kg i.p.) turn out when Clc1cccc([C@@]23CCCC[C@H]2OCCN3)c1 [Crystal Form A of Compound 2 hydrochloride] was run?
Answer: obvious antidepressant effect

Question: What about the 1-h inhibition rate ([1]; 5 mg/kg, 5 mg/kg) of the same molecule?
Answer: 24.6%
